Laboratory results from paper PMC3057186, “Identification and characterization of seven new exon 11-associated splice variants of the rat mu opioid receptor gene, OPRM1” (Molecular Pain, 2011).

Amino acid sequences for entries named in this document (tags omitted).
UniProt P33535, whole entry: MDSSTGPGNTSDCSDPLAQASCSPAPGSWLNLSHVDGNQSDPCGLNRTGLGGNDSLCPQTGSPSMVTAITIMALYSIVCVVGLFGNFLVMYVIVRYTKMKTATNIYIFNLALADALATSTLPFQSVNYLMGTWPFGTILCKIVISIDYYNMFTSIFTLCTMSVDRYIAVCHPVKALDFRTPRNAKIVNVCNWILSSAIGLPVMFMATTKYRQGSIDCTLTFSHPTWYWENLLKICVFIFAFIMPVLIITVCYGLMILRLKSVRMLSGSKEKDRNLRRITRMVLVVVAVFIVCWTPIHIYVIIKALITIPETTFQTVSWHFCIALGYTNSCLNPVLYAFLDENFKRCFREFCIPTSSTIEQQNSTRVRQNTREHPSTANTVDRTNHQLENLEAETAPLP

Biological target: T1, rMOR-1 (Rattus norvegicus, UniProt P33535)
T1 construct: gene Oprm1; no tag told
Assay: [3H]DAMGO saturation binding, CHO membranes

C[C@@H](NC(=O)[C@@H](N)Cc1ccc(O)cc1)C(=O)NCC(=O)N(C)[C@@H](Cc1ccccc1)C(=O)NCCO [DAMGO]
Kd: 0.39 ± 0.03 nM
